The chains behind the UniProt entries cited, without tags or fusion partners. Where a name states a change or a piece, a line headed by the entry shows the natural chain unless it says otherwise.
UniProt Q08499: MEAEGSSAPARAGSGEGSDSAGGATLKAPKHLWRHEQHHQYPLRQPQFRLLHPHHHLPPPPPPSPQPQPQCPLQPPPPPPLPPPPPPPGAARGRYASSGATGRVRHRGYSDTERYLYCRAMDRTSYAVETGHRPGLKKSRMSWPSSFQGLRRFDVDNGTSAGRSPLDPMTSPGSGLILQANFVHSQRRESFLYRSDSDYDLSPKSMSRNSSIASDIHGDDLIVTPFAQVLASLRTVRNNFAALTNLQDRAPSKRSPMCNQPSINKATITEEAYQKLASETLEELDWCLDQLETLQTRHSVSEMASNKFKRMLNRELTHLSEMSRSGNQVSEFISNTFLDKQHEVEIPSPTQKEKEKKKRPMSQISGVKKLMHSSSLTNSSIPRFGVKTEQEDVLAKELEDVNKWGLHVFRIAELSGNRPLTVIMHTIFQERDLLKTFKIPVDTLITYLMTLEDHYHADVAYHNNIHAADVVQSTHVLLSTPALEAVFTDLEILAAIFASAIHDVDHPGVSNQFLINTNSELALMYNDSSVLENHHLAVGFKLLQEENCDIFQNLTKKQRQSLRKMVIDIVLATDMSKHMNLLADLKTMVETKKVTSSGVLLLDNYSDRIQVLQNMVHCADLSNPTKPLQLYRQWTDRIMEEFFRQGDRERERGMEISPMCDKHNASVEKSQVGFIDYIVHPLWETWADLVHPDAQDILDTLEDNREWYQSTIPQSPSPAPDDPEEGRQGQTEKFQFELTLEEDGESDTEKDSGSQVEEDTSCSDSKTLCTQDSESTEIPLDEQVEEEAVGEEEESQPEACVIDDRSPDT

According to patent US8791267B2, “Biaryl PDE4 inhibitors for treating inflammatory, cardiovascular and CNS disorders” (Decode Genetics EHF, priority 2007, dated 2014):

Target: PDE4 (Homo sapiens, UniProt Q08499)
Assay: In-vitro assay for PDE4 enzymes, real-time enzyme-coupled spectrophotometric assay (Table 9)
Format: biochemical
Conditions: read-out: hPDE4D

IC50: < 5 µM
Structure (SMILES): COc1ccc(Cc2ccncc2)nc1-c1cccc([N+](=O)[O-])c1 [P-019, 3-methoxy-2-(3-nitro-phenyl)-6-pyridin-4-ylmethyl-pyridine]
